The source of these data is patent US6951881B2, “(1-substituted-indol-3-yl) alkylidenehydrazinecarboximidamide derivatives as 5-hydroxytryptamine-6 ligands” (Wyeth, priority 2002, dated 2005).

Amino acid sequences for entries named in this document (tags omitted).
UniProt P50406, whole entry: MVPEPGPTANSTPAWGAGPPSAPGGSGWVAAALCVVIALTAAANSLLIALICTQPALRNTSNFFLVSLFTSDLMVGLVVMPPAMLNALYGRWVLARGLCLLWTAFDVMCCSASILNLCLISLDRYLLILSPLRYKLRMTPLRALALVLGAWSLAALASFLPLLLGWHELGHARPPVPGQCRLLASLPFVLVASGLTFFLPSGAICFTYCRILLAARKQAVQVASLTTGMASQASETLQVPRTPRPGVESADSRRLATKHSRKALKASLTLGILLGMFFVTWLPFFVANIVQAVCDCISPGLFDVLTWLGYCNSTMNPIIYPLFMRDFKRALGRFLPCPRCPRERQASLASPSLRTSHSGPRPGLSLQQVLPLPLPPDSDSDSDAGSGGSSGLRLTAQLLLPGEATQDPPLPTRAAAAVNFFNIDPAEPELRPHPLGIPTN

For this assay, the target named is human cloned 5-HT6 receptors (Homo sapiens, UniProt P50406). The format is binding. To be noted: for Ki: read-out: 5-HT6 Binding Ki, [3H]-LSD 3.0 nM, Hela cell membranes; for % Inhibition: test compound dose 1000 nM, displacement of [3H]-LSD. As to the method:
This operation is repeated.
The reaction is allowed to proceed in the dark for 120 min at room temperature, at which time, the bound ligand-receptor complex is filtered off on a 96 well unifilter with a Packard Filtermate® 196 Harvester. The bound complex caught on the filter disk is allowed to air dry and the radioactivity is measured in a Packard TopCount® equipped with six photomultiplier detectors, after the addition of 40.0 μl Microscint®-20 scintillant to each shallow well. The unifilter plate is heat-sealed and counted in a PackardTopCount® with a tritium efficiency of 31.0%.
Specific binding to the 5-HT6 receptor is defined as the total radioactivity bound less the amount bound in the presence of 10.0 μM unlabeled methiothepin. Binding in the presence of varying concentrations of test compound is expressed as a percentage of specific binding in the absence of test compound. The results are plotted as logit % bound versus log concentration of test compound. Nonlinear regression analysis of data points with a computer assisted program Prism® yields both the IC50 and the Ki values of test compounds with 95% confidence limits.
The amount of displacement by the test compound is given in percent (%) inhibition and is derived from the following equation: [formula] where B0 is the amount of CPM bound in the presence of the testing agent. NSB represents the CPM bound in the presence of a saturating concentration of a displacer and TB represents the total amount of CPM bound at zero (0) concentration of test compound.
Alternatively, a linear regression line of decline of data points is plotted, from which the IC50 value can be read off and the Ki value determined by solving the following equation: [formula] where L is the concentration of the radioactive ligand used and KD is the dissociation constant of the ligand for the receptor, both expressed in nM.
A general note: Displacement assays read how much labelled ligand stays bound in the presence of the test substance.

A word on the Ki: it is a dissociation constant, usually derived from enzyme kinetics or from competition with a known ligand. One may read the % Inhibition as the share of the control response that was lost under treatment. Consider `CC(=NNC(=N)N)c1cn(C)c2ccc(NS(=O)(=O)c3ccc(Br)cc3)cc12`, for which the inhibitory constant (Ki) was 3 nM and the “% Inhibition” value is 99.2%.
The matching figures for `CC(=NNC(=N)N)c1cn(C)c2ccc(NS(=O)(=O)c3ccc(Br)s3)cc12`: 2 nM and 99.0%.
Consider `CC(=NNC(=N)N)c1c[nH]c2ccc(NS(=O)(=O)c3cc(Cl)c(Cl)s3)cc12`, for which the Ki came out at 1 nM and the “% Inhibition” value is 99.0%.
